Assay results reported in ChEMBL document CHEMBL1955808, “Discovery of 4-hydroxy-1,6-naphthyridine-3-carbonitrile derivatives as novel PDE10A inhibitors” (Bioorg Med Chem Lett, 2012).
pIC50: −log10 of the molar value.

Protein sequences, listed by entry. Tags and fused reporters are not part of them. Lines headed by an entry give the natural chain unless they say otherwise; changes in a name come on top.
UniProt Q9Y233: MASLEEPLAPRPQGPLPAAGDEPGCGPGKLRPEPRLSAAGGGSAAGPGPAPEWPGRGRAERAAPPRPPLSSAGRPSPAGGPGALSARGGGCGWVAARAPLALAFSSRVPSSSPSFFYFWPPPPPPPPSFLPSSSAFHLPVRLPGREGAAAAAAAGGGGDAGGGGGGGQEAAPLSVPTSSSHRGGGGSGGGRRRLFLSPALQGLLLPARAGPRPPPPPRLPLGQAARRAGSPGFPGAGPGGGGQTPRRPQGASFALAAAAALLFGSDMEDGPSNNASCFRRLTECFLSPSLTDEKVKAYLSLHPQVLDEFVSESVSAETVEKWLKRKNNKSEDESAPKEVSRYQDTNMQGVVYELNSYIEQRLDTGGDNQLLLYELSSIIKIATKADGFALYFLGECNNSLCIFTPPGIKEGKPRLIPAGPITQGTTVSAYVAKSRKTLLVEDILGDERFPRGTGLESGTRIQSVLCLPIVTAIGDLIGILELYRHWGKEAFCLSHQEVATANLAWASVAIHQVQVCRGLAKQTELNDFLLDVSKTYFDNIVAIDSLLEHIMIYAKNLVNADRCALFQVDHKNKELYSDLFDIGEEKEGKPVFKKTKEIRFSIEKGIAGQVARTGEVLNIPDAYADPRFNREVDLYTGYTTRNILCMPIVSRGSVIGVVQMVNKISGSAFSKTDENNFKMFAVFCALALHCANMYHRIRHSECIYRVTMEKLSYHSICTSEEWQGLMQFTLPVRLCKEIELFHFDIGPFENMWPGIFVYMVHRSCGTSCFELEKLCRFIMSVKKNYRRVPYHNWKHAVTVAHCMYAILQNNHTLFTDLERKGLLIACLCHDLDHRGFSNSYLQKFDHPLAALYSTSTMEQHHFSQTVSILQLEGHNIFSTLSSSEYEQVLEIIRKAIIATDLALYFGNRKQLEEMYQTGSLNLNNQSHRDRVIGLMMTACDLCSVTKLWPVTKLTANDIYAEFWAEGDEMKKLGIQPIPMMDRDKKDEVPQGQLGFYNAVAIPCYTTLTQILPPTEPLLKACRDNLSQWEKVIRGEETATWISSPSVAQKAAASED

Molecular target: cAMP and cAMP-inhibited cGMP 3',5'-cyclic phosphodiesterase 10A (Homo sapiens, UniProt Q9Y233)
Assay: Inhibition of human recombinant full length PDE10A using cAMP as substrate preincubated for 20 mins measured after 4 hrs

Work on `COc1ccc(Cc2nccc3cc(OC)c(OC)cc23)cc1OC` [PAPAVERINE] yielded a pIC50 of 7.44.
